Structures are written as SMILES.

These results are taken from ChEMBL document CHEMBL3880421, “Indazole compounds and pharmaceutical compositions for inhibiting protein kinases, and methods for their use” (2003).

A short description of data set [1]: Terminal half life in B6 mouse at 50 mg/kg, po by UV-HPLC analysis. It is filed as ADME, organism-based. To be noted: in vivo, read-out: beta t1/2 (converted).
A short description of data set [2]: Terminal half life in B6 mouse at 25 mg/kg, ip by UV-HPLC analysis. To be noted: in vivo, read-out: beta t1/2 (converted). It is filed as ADME, organism-based.

Regarding `O=C(Nc1cccc(Oc2ccc3c(/C=C/c4c[nH]cn4)n[nH]c3c2)c1)c1ccccc1`, the half-life was 1.1 h in data set [1] and 3.7 h in data set [2].
